Test results from patent US10336774B2, “N-azaspirocycloalkane substituted N-heteroaryl compounds and compositions for inhibiting the activity of SHP2” (NOVARTIS AG, priority 2014, dated 2019).

Chains of the proteins cited; added tags and fusions are not shown.
UniProt Q06124, whole entry: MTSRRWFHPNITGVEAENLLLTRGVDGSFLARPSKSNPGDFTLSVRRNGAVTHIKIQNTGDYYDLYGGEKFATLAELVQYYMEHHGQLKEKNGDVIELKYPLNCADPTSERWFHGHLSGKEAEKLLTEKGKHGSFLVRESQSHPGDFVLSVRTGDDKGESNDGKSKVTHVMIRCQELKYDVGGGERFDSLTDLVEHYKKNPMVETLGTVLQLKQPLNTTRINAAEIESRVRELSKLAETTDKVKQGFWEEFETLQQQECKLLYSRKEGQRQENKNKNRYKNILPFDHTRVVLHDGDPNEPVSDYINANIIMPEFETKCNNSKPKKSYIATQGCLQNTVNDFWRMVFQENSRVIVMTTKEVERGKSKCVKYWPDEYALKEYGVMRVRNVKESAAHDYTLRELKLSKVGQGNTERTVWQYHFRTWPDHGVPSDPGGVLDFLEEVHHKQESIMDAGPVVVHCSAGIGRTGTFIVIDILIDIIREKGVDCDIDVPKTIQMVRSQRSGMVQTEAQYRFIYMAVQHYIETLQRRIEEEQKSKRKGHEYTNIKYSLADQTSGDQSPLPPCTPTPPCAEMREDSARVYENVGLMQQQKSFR

Target: SHP2 (Homo sapiens (Human), UniProt Q06124)
Assay: SHP2 Allosteric Inhibition Assay
Format: biochemical
Settings: 0.5 nM SHP2 activated with 0.5 μM peptide IRS1_pY1172(dPEG8)pY1222, surrogate substrate DiFMUP, fluorescence

| Compound | IC50 [nM] | IC50 (tested form: HCl) [nM] |
| --- | --- | --- |
| Nc1nc(N2CC3(CCC3N)C2)cnc1Sc1cccc(Cl)c1Cl (racemic) [8 P1] | 17500 |  |
| Nc1nc(N2CC3(CCC3N)C2)cnc1Sc1cccc(Cl)c1Cl (racemic) [8 P2] | 3310 |  |
| Nc1nc(N2CCC3(CCC3N)CC2)cnc1Sc1cccc(Cl)c1Cl (single isomer, unassigned) [14 P1] | 19 |  |
| Nc1nc(N2CCC3(CCC3N)CC2)cnc1Sc1cccc(Cl)c1Cl (single isomer, unassigned) [14 P2] | 414 |  |
| Nc1nc(N2CCC3(CCC(F)C3N)CC2)cnc1Sc1cccnc1C(F)(F)F (single isomer, unassigned) [85 P1] |  | 100 |
| Nc1nc(N2CCC3(CCC(F)C3N)CC2)cnc1Sc1cccnc1C(F)(F)F (single isomer, unassigned) [85 enant-P1] |  | 113 |
